The structures appear in SMILES notation. The entries are a selection whose mix differs from that of the whole data set. Inconclusive results are not listed. The source made the active and inactive calls. Calls follow the shape of the dose curve; as a rule, active = well fitted activation curve with a large enough effect; inconclusive = small, poorly fitted or top-dose-only effect; inactive = no such curve, though single readings can be large or run the other way.

By UniProt entry, the sequences of proteins in these tests, tags left out.
UniProt O95398, whole entry: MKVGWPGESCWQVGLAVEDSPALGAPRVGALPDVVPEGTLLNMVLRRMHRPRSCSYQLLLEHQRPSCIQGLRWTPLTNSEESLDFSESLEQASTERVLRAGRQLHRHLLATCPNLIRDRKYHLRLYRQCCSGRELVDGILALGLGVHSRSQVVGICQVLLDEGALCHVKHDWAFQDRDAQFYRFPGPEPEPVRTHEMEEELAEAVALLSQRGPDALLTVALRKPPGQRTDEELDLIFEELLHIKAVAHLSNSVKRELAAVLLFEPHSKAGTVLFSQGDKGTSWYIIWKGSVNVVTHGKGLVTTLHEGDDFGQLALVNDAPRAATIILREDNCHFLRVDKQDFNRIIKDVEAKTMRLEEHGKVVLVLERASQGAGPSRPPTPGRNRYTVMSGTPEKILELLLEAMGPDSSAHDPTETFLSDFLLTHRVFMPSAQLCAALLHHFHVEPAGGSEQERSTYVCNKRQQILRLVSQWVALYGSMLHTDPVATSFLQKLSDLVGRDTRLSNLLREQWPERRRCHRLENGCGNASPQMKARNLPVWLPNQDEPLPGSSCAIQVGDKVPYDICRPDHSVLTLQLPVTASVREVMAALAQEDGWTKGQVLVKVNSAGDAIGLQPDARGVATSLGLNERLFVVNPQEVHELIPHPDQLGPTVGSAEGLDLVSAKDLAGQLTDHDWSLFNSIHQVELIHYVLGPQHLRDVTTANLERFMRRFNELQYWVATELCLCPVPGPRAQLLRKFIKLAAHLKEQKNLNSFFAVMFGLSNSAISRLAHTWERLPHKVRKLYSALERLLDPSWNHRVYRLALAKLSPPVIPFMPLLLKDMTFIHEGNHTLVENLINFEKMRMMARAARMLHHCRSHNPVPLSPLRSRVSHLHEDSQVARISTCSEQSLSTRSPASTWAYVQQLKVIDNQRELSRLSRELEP

The target of this experiment is Rap guanine nucleotide exchange factor 3 (Homo sapiens) (UniProt O95398). As to the kind of experiment: Confirmatory qHTS for agonist of cAMP-regulated guanine nucleotide exchange factor 3 (EPAC1).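 Also: EPAC1 catalysed release of BODIPY-GDP from Rap1B seen as fluorescence loss; nearly all actives have a fitted effect of over 75% in size.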 As to conditions: EPAC1 Rap1B BODIPY-GDP exchange fluorescence, 100% = cAMP control response; at 154 µM (top of the series).
As for `CCCCn1nnnc1C(c1cc2ccccc2o1)N1CCC(n2c(=O)[nH]c3ccccc32)CC1` (stereo not drawn), the activation was inactive: 4.57%.

`O=c1[nH]c2ccccc2n1C1CCN(C(c2ccccc2OC(F)(F)F)c2nnnn2C2CCCC2)CC1` (stereo not drawn): the activation is inactive: -14.7%.

With `CCC(c1nnnn1C(C)(C)C)N1CCC(n2c(=O)[nH]c3ccccc32)CC1` (stereo not drawn), the activation was inactive: -9.96%.

The record behind these values is PubChem BioAssay AID1645881 (National Center for Advancing Translational Sciences (NCATS), 2021).
